Sequences of proteins named here, by UniProt entry; tags and fusion partners are left off. Residues count along the entry.
UniProt O42275, 24-633: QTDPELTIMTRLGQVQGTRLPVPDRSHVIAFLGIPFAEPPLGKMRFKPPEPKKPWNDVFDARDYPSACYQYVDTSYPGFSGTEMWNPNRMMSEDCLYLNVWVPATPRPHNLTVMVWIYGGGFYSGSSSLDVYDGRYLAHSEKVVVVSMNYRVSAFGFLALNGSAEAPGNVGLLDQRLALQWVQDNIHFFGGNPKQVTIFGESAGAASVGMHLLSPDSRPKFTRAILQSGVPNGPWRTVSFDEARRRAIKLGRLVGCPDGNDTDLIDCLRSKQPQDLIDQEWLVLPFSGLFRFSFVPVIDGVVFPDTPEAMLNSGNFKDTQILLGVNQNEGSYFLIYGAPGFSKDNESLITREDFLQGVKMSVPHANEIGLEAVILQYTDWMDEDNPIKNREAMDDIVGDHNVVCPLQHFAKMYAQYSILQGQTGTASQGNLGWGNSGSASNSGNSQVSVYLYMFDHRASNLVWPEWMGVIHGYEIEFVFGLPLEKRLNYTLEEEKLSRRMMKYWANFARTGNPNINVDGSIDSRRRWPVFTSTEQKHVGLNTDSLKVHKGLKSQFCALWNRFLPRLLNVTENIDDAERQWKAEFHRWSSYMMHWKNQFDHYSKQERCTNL

In paper PMC6272295, “In Vitro Neuroprotective Activities of Compounds from Angelica shikokiana Makino” (Molecules, 2015):

Target: T1, AChE from Electrophorus electricus (Electrophorus electricus, UniProt O42275)
T1 construct: purchased Sigma (St. Louis, MO, USA)
Format: biochemical
Experimental: AChEI activity was measured using Ellman’s method. AChE hydrolyzes the substrate ACTI into acetate and thiocholine. In a neutral and alkaline medium; thiocholine reacts with DTNB to give yellow colored 2-nitro-5-thiobenzoate, which can be detected spectrophotometrically at 405 nm. Briefly, in a 96-well plate, 25 µL of 15 mM ACTI, 125 µL of 3 mM DTNB in buffer B (50 mM Tris HCl, pH = 8, 0.1 M NaCl, 0.02 M MgCl2·6H2O), 50 µL of buffer A (50 mM Tris-HCl, PH 8, 0.1% BSA) and 25 µL of tested sample (dissolved in 25% DMSO) were mixed, and the absorbance was measured using a microplate reader (Biotek, Winooski, VT, USA) at 405 nm every 16 s ten times. Then, 25 µL of AChE (0.25 U/mL in buffer A) was added and the absorbance was measured ten times every 16 s. A solution of 25% DMSO was used as a negative control. Absorbance was plotted against time and enzyme activity was calculated from the slope of the line so obtained and expressed as a percentage compared to an assay using a buffer without any inhibitor. Fractions were tested at 400 µg/mL. To avoid any increase in absorbance due to the color of the compounds or spontaneous hydrolysis of the substrate, the absorbance before addition of the enzyme was subtracted from the absorbance after adding the enzyme. […]

## kaempferol-3-O-rutinoside [Kaempferol-3-O-rutinoside (14)]
read-out: AchEI IC50, summary Table 4
  IC50: 50.4 ± 0.4 µM
read-out: IC50 in the AChEI assay, Ellman's method
  IC50: 50.4 ± 0.4 µM

Like-named read-outs stand apart in the source and are kept apart here.
